# Data from patent publication US20240398749A1, “INHALABLE PROTEASE INHIBITORS FOR USE IN THE PREVENTION AND/OR TREATMENT OF FIBROTIC AUTOIMMUNE OR INFLAMMATORY LUNG DISEASES” (priority 2021, published 2024).
# Experiments:
# Assay type in all cases: cell-based
# [1] = test system: alveolar epithelial cells (A549)
# human lung fibroblasts = test system: human lung fibroblasts
# [2] = test system: alveolar epithelial cells
compound,measurement,setting,value
"CCOC(=O)[C@H]1O[C@@H]1C(=O)N[C@@H](CC(C)C)C(=O)NCCC(C)C [E64D, aloxistatin]",release of metalloproteinase-9 (MMP9),[1],inhibits the release
same,TGF-beta induced proliferation,human lung fibroblasts,decreases
same,profibrogenic genes,human lung fibroblasts,dose-dependent downregulation of profibrogenic genes
same,release of IL-8,[2],inhibited the release
